# Screening data as filed in PubChem.
# Shown are actives, neighbours in structure and some others; about 13% of the full set was active somewhere.
# LMNA splice mod: LMNA splicing modulation. AID 1487. Potency, µM (top dose mostly 46.1 µM), for inactives: at the highest dose ratio change, negative = inhibition, actives largely listed as inhibitors. HeLa LMNA splicing GFP/RFP minigene ratio, 48 h. 200,000 tested, 0.01% active; active means well fitted inhibition curve with a large enough effect in the signal ratio, with a control signal flat, not every such curve was filed as active; inconclusive means small, poorly fitted or top-dose-only effect, or effect the other way, or a change in a side signal; the % refers to the signal ratio; further: potency means the concentration at half of the fitted maximal effect; on the % scale 0 is the no-effect control and ±100 the full control effect
#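 Read-out is the ratio of GFP to DsRed2 object intensity, acquired by 488 nm laser-scanning cytometry on HeLa lamin A-EGFP minigene reporter cells. Compound incubation 48 hrs at 37 °C in Opti-MEM with 2% FBS; DMSO 0.5% final.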
# G9a inh: blocks human histone lysine methyltransferase G9a | Potency, µM (doses to about 102 µM), for inactives: top-dose activity, negative = inhibition, usual class: inhibitors | G9a H3K9 monomethylation, AlphaScreen, 2 h | Q96KQ7 | 350,000 tested, 8.8% active; further: potency means the concentration at half of the fitted maximal effect; on the % scale 0 is the no-effect control and ±100 the full control effect; nearly all actives have a fitted effect of over 75% in size
#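 G9a (20 nM) was preincubated 15 min with compound, then reacted 2 h at room temperature with 500 nM biotin-H3K9 peptide and 20 µM SAM. Monomethyl-H3K9 detected by AlphaScreen using anti-H3K9me1 antibody.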
# KDM4E inh: blocks human JMJD2E demethylase activity; B2RXH2; JMJD2E catalytic domain, FDH-coupled NADH fluorescence (FDH is formaldehyde dehydrogenase); Potency, µM (titrated, usually from 57.1 µM), without a hit: top-dose activity change, negative = inhibition, hits mostly inhibitors; 230,000 tested, 1.6% active; AID 2147; active means well fitted inhibition curve with a large enough effect, not every such curve was filed as active; inconclusive means small, poorly fitted or top-dose-only effect, or another doubt; inactive means no such curve, though single readings can be large or run the other way;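 further: potency means the concentration at half of the fitted maximal effect; 0% = wells with enzyme and -100% = buffer wells without enzyme; nearly all actives have a fitted effect of over 50% in size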
# Sfp PPTase inh: blocks B. subtilis Sfp PPTase activity. AID 1490. Q9F4F7. Biochemical Sfp PPTase activity, qHTS. hit rate 3.5% among 310,000. Potency, µM, for the others: max response, negative = inhibition, usual class: inhibitors; active = well fitted inhibition curve with a large enough effect; inconclusive = small, poorly fitted or top-dose-only effect, or another doubt; inactive = no such curve, though single readings can be large or run the other way;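 also: the enzyme is Sfp with the accession as filed and its product quenches rhodamine fluorescence; potency is read from the fitted curve at half-maximal effect; 0% = enzyme reaction without inhibitor and -100% = no enzyme wells; top concentration of the series not given in the record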
#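 Buffer: 50 mM Hepes-Na pH 7.6, 10 mM MgCl2, 0.01% Nonidet P-40, 0.01% BSA. Enzyme 15 nM, pre-exposed to compound 15 min; substrates then added and fluorescence change tracked over 30 min.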
# miR-21 reporter: miR-21 reporter, rising signal | HeLa miR-21 FLuc reporter, luciferase, 48 h | Potency, µM (highest dose often 38.3 µM), for inactives: at the top dose reporter change, positive = more light | 340,000 tested, under 10 active | AID 2288; active = well fitted rising curve with a large enough effect; inconclusive = small, poorly fitted or top-dose-only effect; inactive = no such curve, though single readings can be large or run the other way;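 further: % of control where 0% means no effect; miR-21 action dims this reporter so a rising signal means less miR-21 action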
#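 HeLa miR-21-FLuc reporter line, endogenous miR-21; 2000 cells/well in DMEM/10% FBS; compound titration up to ~40uM final, 48 h, 37 degree Celsius; luciferase detection reagent, 15 min lysis, CCD luminescence.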
# ALDH1A1 inh: blocks purified human ALDH1A1 activity; Potency, µM (doses to about 75.3 µM), for inactives: at the top dose activity, negative = inhibition, most hits filed as inhibitors; AID 1030; 220,000 tested, 7.3% active; P00352; Purified ALDH1A1, NADH fluorescence, propionaldehyde substrate; active means well fitted inhibition curve with a large enough effect, not every such curve was filed as active; inconclusive means small, poorly fitted or top-dose-only effect, or another doubt; inactive means no such curve, though single readings can be large or run the other way;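 further: potency means the concentration at half of the fitted maximal effect; plate controls were no enzyme wells and a reference inhibitor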
# * = called active by the depositor; u = inconclusive; x = no result; [ ] = another dose, or the depositor's remark. Unless noted, the call rests on the fitted dose curve; in most records, active means well fitted curve in the direction sought with a large enough effect; inconclusive means small, poorly fitted or top-dose-only effect, or another doubt; inactive means no such curve, though single readings can be large; an effect the other way counts as inactive or inconclusive.
# Short forms: A = LMNA splice mod; B = G9a inh; C = KDM4E inh; D = Sfp PPTase inh; E = miR-21 reporter; F = ALDH1A1 inh
> CCOC(=O)c1ccc(NC(=O)c2c(NCc3sccc3C)sc3c2CCCCC3)cc1
  A: u | B: 8.91µM* | C: x | D: x | E: -14.0% | F: x
> COC(=O)c1ccc(NC(=O)c2c(NCc3ccc(C)o3)sc3c2CCCC3)cc1
  A: u | B: u | C: x | D: x | E: -13.4% | F: x
> CCOC(=O)Cc1csc(SCC(=O)Nc2sc3c(c2C(N)=O)CCC3)n1
  A: 5.5% | B: 50.1µM* | C: u | D: -4.9% | E: -3.2% | F: u
> CCOC(=O)Cc1csc(SCC(=O)Nc2nccs2)n1
  A: x | B: 50.1µM* | C: x | D: x | E: x | F: x
> CN(C)Cc1ccccc1-c1cc(Nc2ccccc2)ncn1
  A: u | B: x | C: 0.7% | D: 20.3% | E: x | F: 2.3%
> O=C(NCc1ccc(F)cc1Cl)c1ccc(CSCc2ccccc2Cl)o1
  A: -14.7%[46 µM] | B: 5.6%[59 µM] | C: x | D: x | E: -0.6% | F: x
> O=C(CN1C(=O)NC2(CCSC2)C1=O)N1CCN(c2ccc(F)cc2)CC1 (stereo unspecified)
  A: 1.6% | B: -5.4% | C: 1.5% | D: 7.6% | E: 7.6% | F: 20µM*
> CCN1C(=O)c2ccccc2Sc2ccc(NC(=O)Nc3cccc([N+](=O)[O-])c3C)cc21
  A: -21.3%[46 µM] | B: 0.0%[59 µM] | C: x | D: x | E: 0.9% | F: x
> Cc1csc(CN(C)C(=O)CC2C(=O)NCCN2Cc2ccc(F)cc2Cl)n1 (stereo unspecified)
  A: x | B: 22.4µM* | C: x | D: -21.5% | E: -3.4% | F: x
> Cc1csc(CN(C)C(=O)CC2C(=O)NCCN2Cc2ccc(Cl)c(F)c2)n1 (stereo unspecified)
  A: x | B: 39.8µM* | C: x | D: 1.3% | E: -5.5% | F: x
> Cc1csc(CNC(=O)CC2C(=O)NCCN2Cc2ccc(F)cc2Cl)n1 (stereo unspecified)
  A: x | B: 55.3% | C: x | D: -22.9% | E: 0.3% | F: x
> Cc1cc(CN(C)C(=O)CC2C(=O)NCCN2Cc2c(F)cccc2Cl)n[nH]1 (stereo unspecified)
  A: x | B: 39.8µM* | C: -11.4% | D: 50.1µM* | E: -1.2% | F: 15.8µM*
> COc1ccc(CN2CCNC(=O)C2CC(=O)N(C)Cc2nc(C)cs2)c(OC)c1 (stereo unspecified)
  A: x | B: 50.1µM* | C: x | D: 5.4% | E: -2.1% | F: x
> CCCCOc1ccc(CNC(=O)C2CCCN(c3nnc(-n4c(C)ccc4C)s3)C2)cc1 (stereo unspecified)
  A: x | B: -4.2%[59 µM] | C: x | D: x | E: 8.8% | F: x
> Cc1c(C(=O)N2CCCCC2C)sc2ncnc(N3CCc4ccccc4C3)c12 (stereo unspecified)
  A: x | B: -46.7% | C: -14.4% | D: -9.1% | E: 7.3% | F: 7.94µM*
> CN1CCc2c(sc(NC(=O)c3cc(Cl)sc3Cl)c2C(N)=O)C1
  A: x | B: x | C: x | D: -11.2% | E: -19.3% | F: x
> CN1CCc2c(sc(NC(=O)c3ccc(S(=O)(=O)N4CCCC4)cc3)c2C(N)=O)C1
  A: x | B: 15.1% | C: x | D: 20.6% | E: -5.8% | F: x
> CCCN1CCc2c(sc(NC(=O)c3ccc(S(=O)(=O)N4CCN(C(=O)OCC)CC4)cc3)c2C(N)=O)C1
  A: x | B: u | C: x | D: -5.8% | E: -12.3% | F: x
> CCOC(=O)N1CCN(S(=O)(=O)c2ccc(C(=O)Nc3sc4c(c3C(=O)OC)CCN(C)C4)cc2)CC1
  A: x | B: 56.2µM* | C: x | D: 8.4% | E: -9.6% | F: x
> CN1CCc2c(sc(NC(=O)C3CCCN3S(=O)(=O)c3ccc(Cl)s3)c2C(N)=O)C1 (stereo unspecified)
  A: x | B: 44.7µM* | C: x | D: x | E: x | F: x
> CN1CCc2c(sc(NC(=O)c3ccc(S(=O)(=O)N4CCOCC4)cc3)c2C(N)=O)C1
  A: -6.6% | B: 39.8µM* | C: -2.6% | D: 20.3% | E: -5.2% | F: -8.4%
> CCOC(=O)N1CCN(S(=O)(=O)c2ccc(C(=O)Nc3sc4c(c3C(N)=O)CCN(CC)C4)cc2)CC1
  A: x | B: 50.1µM* | C: x | D: -5.7% | E: 2.6% | F: x
> Cc1cccc(-n2c(C)cc(C(=O)C(=O)Nc3ccccc3F)c2C)c1C
  A: x | B: -23.6%[59 µM] | C: x | D: x | E: 0.3% | F: x
> O=C(CCc1ccccc1)c1nnc(-c2ccccc2)o1
  A: x | B: 98.3% | C: 0.6% | D: -13.7% | E: -24.5% | F: -5.0%
> Cc1cc(SCC(=O)NCC(c2cccs2)N2CCOCC2)c(C)cc1Br (stereo unspecified)
  A: x | B: 3.3%[12.7 µM] | C: x | D: x | E: x | F: x

# Taken from the results shown (two entries):
# Short forms: A = LMNA splice mod; B = G9a inh; C = KDM4E inh; D = Sfp PPTase inh; E = miR-21 reporter; F = ALDH1A1 inh
> CCOC(=O)c1ccc(NC(=O)c2c(NCc3sccc3C)sc3c2CCCCC3)cc1
  A: u | B: 8.91µM* | C: x | D: x | E: -14.0% | F: x
> COC(=O)c1ccc(NC(=O)c2c(NCc3ccc(C)o3)sc3c2CCCC3)cc1
  A: u | B: u | C: x | D: x | E: -13.4% | F: x

# The listing continues:
# Short forms: A = LMNA splice mod; B = G9a inh; C = KDM4E inh; D = Sfp PPTase inh; E = miR-21 reporter; F = ALDH1A1 inh
> CN1CCN(S(=O)(=O)c2cccc(C(=O)Nc3sc4c(c3C(N)=O)CCCC4)c2)CC1
  A: u | B: u | C: -8.1% | D: 56.2µM* | E: -5.3% | F: u
> CC(C)c1c(O)ccc2c1CCC1C(C)(C)CCC[C@@]21C (stereo partly specified)
  A: x | B: -1.8%[2.33 µM] | C: u | D: 5.0% | E: x | F: -7.8%
> Cc1cc(Nc2cccc(C(F)(F)F)c2)nc2ccc(NC(=O)c3cccnc3)cc12
  A: u | B: 17.6%[59 µM] | C: x | D: x | E: u | F: x
> O=C(NC(NC(=S)Nc1c(Cl)cccc1Cl)C(Cl)(Cl)Cl)OCc1ccccc1 (stereo unspecified)
  A: u | B: 3.16µM* | C: 5.4% | D: 14.3% | E: 25.1% | F: 10µM*
> CC(C)C[C@@H](CO)N1CCN(Cc2cccc(C#N)c2)CCC1=O
  A: x | B: -2.2% | C: x | D: 5.9% | E: -0.2% | F: x
> O=C1NC(=O)C(Cc2ccc(OCCN3COc4ccccc4C3=O)cc2)S1 (stereo unspecified)
  A: x | B: x | C: x | D: 4.1% | E: x | F: x
> CCOC(=O)/C(C#N)=C/c1cc2ccccc2nc1N1CCCCC1
  A: -12.2%[46 µM] | B: 4.3%[12.7 µM] | C: 0.2% | D: -15.5% | E: -10.3% | F: 18.9µM*
> Cc1ccc(/C=C(\C#N)C(=O)N2CCCC2)c(C)c1
  A: x | B: -6.8% | C: 6.2% | D: 17.2% | E: -23.1% | F: -2.8%
> N#C/C(=C\c1ccc(N2CCCCC2)o1)C(=O)Nc1cccc(Br)c1
  A: u | B: u | C: -2.2% | D: -21.4% | E: -57.1% | F: u
> N#C/C(=C\c1ccc(N2CCCCC2)o1)C(N)=O
  A: u | B: 28.2µM* | C: -20.5% | D: -5.3% | E: -22.8% | F: -10.9%
> N#C/C(=C\c1cc2ccccc2nc1N1CCOCC1)C(=O)Nc1ccc(N2CCOCC2)cc1
  A: u | B: u | C: 14.9% | D: 17.5% | E: 1.4% | F: -11.6%
> N#CC(C#N)=Cc1cc2ccccc2nc1N1CCOCC1
  A: -17.2% | B: u | C: 2.4% | D: -9.3% | E: -8.7% | F: 11.2µM*
> Cc1ccc2cc(/C=C(\C#N)C(N)=O)c(N3CCCCC3)nc2c1
  A: u | B: 23.5%[59 µM] | C: -5.8% | D: -3.3% | E: -6.7% | F: 11.2µM*
> COc1ccc(N2CCN(C(=O)c3cc(=O)c4cc(C)c(C)cc4o3)CC2)cc1
  A: x | B: 6.1% | C: x | D: 5.2% | E: -3.3% | F: x
> CC1CCC2=C1C[C@H](C(C)(C)O)CC[C@@H]2C (stereo partly specified)
  A: x | B: x | C: 15.5% | D: 1.3% | E: x | F: -4.6%
> COc1ccccc1/C=C/c1nc2ccccc2n1C(C)C
  A: x | B: 101.6%[59 µM] | C: x | D: x | E: -20.6% | F: x
> Cc1ccc2cc(C#N)c(N3CCN(C)CC3)nc2c1
  A: -8.7% | B: -12.1%[59 µM] | C: u | D: 1.8% | E: -14.2% | F: -8.8%
> Cc1ccc2cc(C=C(C#N)C#N)c(N3CCCCC3)nc2c1
  A: -2.7% | B: 44.7µM* | C: -6.3% | D: -12.8% | E: -15.0% | F: 7.94µM*
> Clc1ccc(OCCCCCN2CCCC2)c(Br)c1
  A: u | B: u | C: 3.8% | D: -54.9% | E: -13.5% | F: -0.3%
> CCN1CCN(CCCOc2ccc(Cl)cc2Br)CC1
  A: x | B: x | C: 4.5% | D: 10µM* | E: -0.2% | F: 12.6µM*
> Clc1ccc(OCCN2CCCCC2)c(Cl)c1
  A: 18.4% | B: 11.2µM* | C: -20.7% | D: -16.3% | E: -8.1% | F: -8.9%
> Clc1ccc(OCCCN2CCCCC2)c(Br)c1
  A: -0.3% | B: 3.55µM* | C: u | D: -21.5% | E: -49.6% | F: -7.0%
